The source of these data is patent publication US20090253669A1, “Substituted Sulfonamide Compounds” (GRUENENTHAL GmbH, priority 2008, published 2009).

Amino acid sequences for entries named in this document (tags omitted). A change or cut given only in a name is not applied to a line headed by its entry.
UniProt P46663: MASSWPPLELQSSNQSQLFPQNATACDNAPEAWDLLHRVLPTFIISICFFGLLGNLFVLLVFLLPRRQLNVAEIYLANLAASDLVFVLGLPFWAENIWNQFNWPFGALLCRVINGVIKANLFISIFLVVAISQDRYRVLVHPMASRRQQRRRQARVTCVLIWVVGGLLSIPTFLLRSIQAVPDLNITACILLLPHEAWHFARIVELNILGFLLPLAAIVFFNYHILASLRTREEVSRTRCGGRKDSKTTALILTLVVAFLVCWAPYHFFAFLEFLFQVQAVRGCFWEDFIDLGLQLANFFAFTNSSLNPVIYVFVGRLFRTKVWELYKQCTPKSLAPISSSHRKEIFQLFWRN
UniProt P97583: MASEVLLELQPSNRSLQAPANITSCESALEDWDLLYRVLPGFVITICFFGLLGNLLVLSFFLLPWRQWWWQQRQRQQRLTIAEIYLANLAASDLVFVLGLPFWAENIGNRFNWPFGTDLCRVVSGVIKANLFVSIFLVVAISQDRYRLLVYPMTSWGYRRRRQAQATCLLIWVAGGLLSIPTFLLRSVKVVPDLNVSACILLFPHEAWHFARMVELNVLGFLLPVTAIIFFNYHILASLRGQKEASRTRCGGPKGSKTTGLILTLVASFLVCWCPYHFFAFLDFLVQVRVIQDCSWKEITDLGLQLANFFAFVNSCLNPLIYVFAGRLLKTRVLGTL
UniProt P35372, whole entry, looked up: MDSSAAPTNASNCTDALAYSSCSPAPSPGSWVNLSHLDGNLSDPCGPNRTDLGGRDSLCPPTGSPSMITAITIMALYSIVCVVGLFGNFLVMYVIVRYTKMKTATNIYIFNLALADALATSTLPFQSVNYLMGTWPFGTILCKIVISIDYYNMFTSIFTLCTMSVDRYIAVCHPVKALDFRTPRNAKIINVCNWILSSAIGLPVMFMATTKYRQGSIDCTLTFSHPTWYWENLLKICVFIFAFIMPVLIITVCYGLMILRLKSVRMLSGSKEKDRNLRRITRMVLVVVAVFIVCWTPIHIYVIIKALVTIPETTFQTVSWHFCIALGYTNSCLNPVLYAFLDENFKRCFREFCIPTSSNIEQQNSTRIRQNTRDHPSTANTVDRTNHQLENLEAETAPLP

The structures appear in SMILES notation.

In assay [1] the target is human B1R receptor (hB1R) (Homo sapiens, UniProt P46663). Description: FLIPR Ca2+ assay on hB1R-transfected CHO K1 cells, antagonistic action. The format is cell-based. To be noted: 10 μM test substance; agonist Lys-Des-Arg9-bradykinin 0.5 nM; % of maximum achievable inhibition.
Assay [2] has as its target B1R receptor of the rat (rB1R) (Rattus norvegicus, UniProt P97583). Description: FLIPR Ca2+ assay on rB1R-transfected CHO K1 cells, antagonistic action. It is filed as cell-based. To be noted: 10 μM test substance; agonist Des-Arg9-bradykinin 100 nM; % of maximum achievable inhibition.
For another assay, the target named is human μ opiate receptor (Homo sapiens, UniProt P35372). The experiment in a line: [3H]-naloxone displacement, SPA, membranes of CHO-K1 cells. To be noted: 1 μM test substance; inhibition of specific binding of 1 nmol/l [3H]-naloxone.

With `CN(C)C1(CCc2ccccc2)CCC(NC(=O)COCCN(C)S(=O)(=O)c2c(Cl)cc(Cl)cc2Cl)CC1` (stereo not shown), the “hB1R [10 μM] % inhibition” value in assay [1] was 96%. Also, in assay [2], the “rB1R [10 μM] % inhibition” value was 66%. At human μ opiate receptor, the “μ opioid receptor [1 μM] % inhibition” value worked out at 69%.
On the same counts, the results for `COc1ccc(S(=O)(=O)N2CCCCC2COCC(=O)NC2CCC(CCc3ccccc3)(N(C)C)CC2)cc1` (stereo not shown) are 48%, 104% and 64%.
As to `COc1ccc(S(=O)(=O)N2CCc3ccccc3C2CC(=O)NC2CCC(CCc3ccccc3)(N(C)C)CC2)cc1` (stereo not shown), the “hB1R [10 μM] % inhibition” value in assay [1] is 98%. In addition, the “rB1R [10 μM] % inhibition” value in assay [2] is 102%. For the same compound, the “μ opioid receptor [1 μM] % inhibition” value on human μ opiate receptor is on record as 54%.
For `CN(CCC1CCC(CCc2ccccc2)(N2CCCC2)CC1)C(=O)CC1CCCCN1S(=O)(=O)c1cccc(C(F)(F)F)c1` (stereo not shown), in assay [1], the “hB1R [10 μM] % inhibition” value is recorded as 102%. The “rB1R [10 μM] % inhibition” value in assay [2] was 101%. Further, the “μ opioid receptor [1 μM] % inhibition” value on human μ opiate receptor amounted to 24%.
Taken in the same sequence, the figures for `COc1ccc(S(=O)(=O)N2CCCCC2COCC(=O)NC2CCC(Cc3ccccc3C)(N(C)C)CC2)cc1` (stereo not shown) were 43%, 100% and 37%.
On the same counts, the results for `CN(C)C1(CCc2ccccc2)CCC(NC(=O)COCCN(C)S(=O)(=O)c2cccc(C(F)(F)F)c2)CC1` (stereo not shown) are 50%, 29% and 35%.
Taken in the same sequence, the figures for `CN(C)C1(CCc2ccccc2)CCC(NC(=O)COCCN(C)S(=O)(=O)c2ccc(Cl)cc2Cl)CC1` (stereo not shown) were 84%, 66% and 66%.
Regarding `CCN(CCOCC(=O)NC1CCC(CCc2ccccc2)(N(C)C)CC1)S(=O)(=O)c1c(C)cc(OC)c(C)c1C` (stereo not shown), the “hB1R [10 μM] % inhibition” value in assay [1] turned out to be 73%. The “rB1R [10 μM] % inhibition” value in assay [2] worked out at 99%. Moreover, the “μ opioid receptor [1 μM] % inhibition” value on human μ opiate receptor is 61%.
In the case of `CN(C)C1(CCc2ccccc2)CCC(NC(=O)COCCN(C)S(=O)(=O)c2c(Cl)cccc2Cl)CC1` (stereo not shown), the “hB1R [10 μM] % inhibition” value in assay [1] stood at 95%. In addition, the “rB1R [10 μM] % inhibition” value in assay [2] was 84%. Also, the “μ opioid receptor [1 μM] % inhibition” value on human μ opiate receptor is recorded as 60%.
On to `Cc1cc(C)c(S(=O)(=O)N(C)CCOCC(=O)NC2CCC(CCc3ccccc3)(N(C)C)CC2)c(C)c1` (stereo not shown), for which the “hB1R [10 μM] % inhibition” value in assay [1] is on record as 93%. The “rB1R [10 μM] % inhibition” value in assay [2] was 63%. The “μ opioid receptor [1 μM] % inhibition” value at human μ opiate receptor was determined as 51%.
For the compound `COc1cc(C)c(S(=O)(=O)N2CCCCC2COCC(=O)N(C)CC2CCC(CCc3ccccc3)(N3CCCC3)CC2)c(C)c1` (stereo not shown) [Compound 51, 2-((1-(4-methoxy-2,6-dimethylphenylsulfonyl)piperidin-2-yl)methoxy)-N-methyl-N-((4-phenethyl-4-(pyrrolidin-1-yl)cyclohexyl)methyl)acetamide], the “μ opioid receptor [1 μM] % inhibition” value on human μ opiate receptor is given as 46%.
Still for that read-out and setting: the value for `COc1cc(C)c(S(=O)(=O)N2CCCC2COCC(=O)N(C)CC2CCC(CCc3ccccc3)(N3CCN(C)CC3)CC2)c(C)c1` (stereo not shown) [Compound 148, 2-((1-(4-methoxy-2,6-dimethylphenylsulfonyl)pyrrolidin-2-yl)methoxy)-N-methyl-N-((4-(4-methylpiperazin-1-yl)-4-phenethylcyclohexyl)methyl)acetamide] was 18%; that for `COc1cc(C)c(S(=O)(=O)N2CCCCC2COCC(=O)NC2CCC(Cc3ccccc3)(N3CCOCC3)CC2)c(C)c1` (stereo not shown) [Compound 155, N-(4-benzyl-4-morpholinocyclohexyl)-2-((1-(4-methoxy-2,6-dimethylphenylsulfonyl)piperidin-2-yl)methoxy)acetamide] was 34%; that for `COc1cc(C)c(S(=O)(=O)N2CCCC(COCC(=O)N(C)CC3CCC(CCc4ccccc4)(N4CCN(C)CC4)CC3)C2)c(C)c1` (stereo not shown) [Compound 182, 2-((1-(4-methoxy-2,6-dimethylphenylsulfonyl)piperidin-3-yl)methoxy)-N-methyl-N-((4-(4-methylpiperazin-1-yl)-4-phenethylcyclohexyl)methyl)acetamide] was 7%.
With `COc1cc(C)c(S(=O)(=O)N(C)CCOCC(=O)N2CCC(c3ccccc3)(N(C)C)CC2)c(C)c1` [Compound 54, N-(2-(2-(4-(dimethylamino)-4-phenylpiperidin-1-yl)-2-oxoethoxy)ethyl)-4-methoxy-N,2,6-trimethylbenzenesulfonamide], the “μ opioid receptor [1 μM] % inhibition” value at human μ opiate receptor is 42%.
For `COc1cc(C)c(S(=O)(=O)N2CCCC2COCC(=O)NCC2CCC(Cc3ccccc3)(N3CCOCC3)CC2)c(C)c1` (stereo not shown) [Compound 169, N-((4-benzyl-4-morpholinocyclohexyl)methyl)-2-((1-(4-methoxy-2,6-dimethylphenylsulfonyl)pyrrolidin-2-yl)methoxy)acetamide], the “μ opioid receptor [1 μM] % inhibition” value on human μ opiate receptor is listed as 24%.
Consider `CN1CCN(C2(Cc3ccccc3)CCN(C(=O)CC(NS(=O)(=O)c3ccc4ccccc4c3)c3ccccc3)CC2)CC1` (stereo not shown) [Compound 118, N-(3-(4-benzyl-4-(4-methylpiperazin-1-yl)piperidin-1-yl)-3-oxo-1-phenylpropyl)naphthalene-2-sulfonamide], for which the “μ opioid receptor [1 μM] % inhibition” value on human μ opiate receptor came out at 18%.
The same measure, in the same setting: with `COc1cc(C)c(S(=O)(=O)N2CCCC2COCC(=O)NCC2CCC(c3ccccc3)(N3CCOCC3)CC2)c(C)c1` (stereo not shown) [Compound 152, 2-((1-(4-methoxy-2,6-dimethylphenylsulfonyl)pyrrolidin-2-yl)methoxy)-N-((4-morpholino-4-phenylcyclohexyl)methyl)acetamide] the figure was 32%; with `Cc1cc(S(=O)(=O)N2CCCCC2CCC(=O)N(C)CCCC2CCC(Cc3ccccc3)(N3CCCC3)CC2)c(C)cc1Cl` (stereo not shown) [Compound 124, N-(3-(4-benzyl-4-(pyrrolidin-1-yl)cyclohexyl)propyl)-3-(1-(4-chloro-2,5-dimethylphenylsulfonyl)piperidin-2-yl)-N-methylpropanamide], 17%.
Still for that read-out and setting: with `CN(CC1CCC(c2ccccc2)(N2CCCC2)CC1)C(=O)CC1CCCCN1S(=O)(=O)c1cccc(C(F)(F)F)c1` (stereo not shown) [Compound 33, N-methyl-N-((4-phenyl-4-(pyrrolidin-1-yl)cyclohexyl)methyl)-2-(1-(3-(trifluoromethyl)phenylsulfonyl)piperidin-2-yl)acetamide] the figure was 44%.
